# In article PMC5259791 (Scientific Reports, 2017):
# Tests used:
# PPARγ1 = biological target: T1, PPARγ1 (Homo sapiens, UniProt P37231); assay: PPRE-luciferase transactivation in HEK293 cells stably expressing exogenous PPARγ; assay type: cell-based; details: 24 h treatment
# T1 construct: from a transfected PCDNA-3 vector carrying a complete PPARγ cDNA; expressed in transfected cells
# Text: To verify that 1 is a bona fide PPARγ ligand with transactivation ability, we transiently transfected a PPRE-TK-luciferase-reporter plasmid in HEK293 cells that, in addition to the endogenous protein, stably express an exogenous PPARγ. These cells were selected as they express a fixed and known amount of PPARγ, so that the differences in luciferase activity can be ascribed to the different ligand used. […] Luciferase activity is reported as fold-induction after normalization to β-galactosidase activity used as control for transfection efficiency. […] (b) Human HEK293T cells were co-transfected with the PPRE-luciferase reporter gene and the wild-type PPARγ1 or its mutant version (C285A). After transfection, cells were treated for 24 h with Rosiglitazone or 1 at the indicated concentrations. Luciferase activity is reported as fold-induction after normalization to β-galactosidase activity used as control for transfection efficiency.
# HEK293 cells that stably express an exogenous Flag-tagged PPARγ from a transfected PCDNA-3 vector carrying a complete PPARγ cDNA were used for transfection experiments. The PPRE-Luc plasmid contains a luciferase reporter gene under the transcriptional control of three copies of the PPRE (Peroxisome Proliferator Response Element) derived from Acyl-CoA oxidase gene fused upstream to the herpes simplex thymidine kinase (TK) promoter, as described. […]
# PPARγ1 C285A mutant = biological target: T2, PPARγ1 C285A mutant (Homo sapiens, UniProt P37231, C313A); assay: PPRE-luciferase transactivation in HEK293T cells co-transfected with PPARγ1 C285A mutant; assay type: cell-based; details: C285A mutant versus wild type receptor, 24 h
# T2 construct: expressed in transfected cells; host or cells: HEK293T (transient); vectors from Takuma Shiraki
# Text: (b) Human HEK293T cells were co-transfected with the PPRE-luciferase reporter gene and the wild-type PPARγ1 or its mutant version (C285A).
# HEK293 cells that stably express an exogenous Flag-tagged PPARγ from a transfected PCDNA-3 vector carrying a complete PPARγ cDNA were used for transfection experiments. The PPRE-Luc plasmid contains a luciferase reporter gene under the transcriptional control of three copies of the PPRE (Peroxisome Proliferator Response Element) derived from Acyl-CoA oxidase gene fused upstream to the herpes simplex thymidine kinase (TK) promoter, as described. […] Transient transfection assays were carried out as described in ref. [44]. […] In this case, the experiments were carried out into basal HEK293T cells and the RSV-β-Gal plasmid was used as control for transfection efficiency. […] The wild type and mutant PPARγ containing expression vectors were kindly provided by Dott. Takuma Shiraki. At least three independent experiments were performed for each transfection carried out in duplicate. Luciferase activity was normalized to β-galactosidase activity and reported as fold-induction.
compound,measurement,setting,value
"CN(CCOc1ccc(CC2SC(=O)NC2=O)cc1)c1ccccn1 (centres unmarked) [Rosiglitazone, reference compound]",concentration at peak of luciferase activity,PPARγ1,0.8 µM
same,luciferase activity with C285A mutant,PPARγ1 C285A mutant,equivalent luciferase activity with both the wild type and mutant receptor
